Assay [1] addresses T1, CXCR2 (Homo sapiens (Human), UniProt P25025). Briefly: Inhibition of GROα-mediated intracellular calcium release in human neutrophils (FLIPR-3 Ca2+ mobilization). The conditions noted are these: 25 nM GROα. It counts as cell-based. On the procedure: (§1) In Tables 1-5, the IC50 or EC50 values were determined using the following assay. This assay measures intracellular calcium release via fluorescence as an indication of CXCR2 receptor activation by the physiologic agonist GROα. The assay is a Ca^2+ mobilization assay that measures changes in intracellular Ca^2+ with a FlexStation II scanning fluorometer using a FLIPR-3 Calcium Assay Kit (Molecular Devices, Sunnyvale, Calif.). The procedure is as follows:
1. Human neutrophils were suspended in HBSS^− (without Ca^2+ and Mg^2+) containing 10 mM HEPES and FLIPR Calcium 3 dye (3.1×10^7 cells in total volume 1.7 mL).
2. […] As controls, 2 μL of DMSO (1% final concentration) were added to other 2 tubes.
3. Cells were incubated for 30 min at 37° C.
4. […]
6. The cell suspension was aliquoted into a 96-well Reading Plate (Corning) in a volume of 90 μL (10^5 cells/well). […]
9. The maximum change in fluorescence, expressed in arbitrary units over baseline (Max-Min) was used to determine the GROα response. […]
Briefly, human neutrophils were suspended in HBSS^− (without Ca^2+ and Mg^2+) containing 10 mM HEPES and FLIPR Calcium 3 dye (3.1×10^7 cells in total volume 1.7 mL). […] The cell suspension was aliquoted into a 96-well Reading Plate (Corning) in a volume of 90 μL (10^5 cells/well). […]
(§2) The maximum change in fluorescence, expressed in arbitrary units over baseline (Max-Min), was used to determine the GROα response.
In general terms: A change in cytosolic calcium serves as a functional read-out for many receptors and channels.

Chains of the proteins cited; added tags and fusions are not shown.
UniProt P25025, whole entry: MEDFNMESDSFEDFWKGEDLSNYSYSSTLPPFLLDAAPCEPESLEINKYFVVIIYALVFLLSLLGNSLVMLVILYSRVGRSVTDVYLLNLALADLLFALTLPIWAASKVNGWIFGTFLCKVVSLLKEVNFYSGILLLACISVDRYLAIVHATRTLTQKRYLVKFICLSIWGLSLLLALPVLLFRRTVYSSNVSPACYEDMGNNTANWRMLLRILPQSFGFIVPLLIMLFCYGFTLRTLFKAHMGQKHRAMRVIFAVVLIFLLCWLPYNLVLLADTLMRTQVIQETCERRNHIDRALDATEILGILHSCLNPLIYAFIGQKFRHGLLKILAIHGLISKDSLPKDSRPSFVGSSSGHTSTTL

The target in assay [2] is T1, CXCR2. In words: Agonist activity: intracellular calcium release in human neutrophils in the absence of GROα. Type of assay: cell-based. On the procedure: as §1
9. The maximum change in fluorescence, expressed in arbitrary units over baseline (Max-Min) was used to determine the GROα response. […] Therapeutic Activity
as §2
Intracellular calcium release is a hallmark of CXCR2 activation by endogenous agonists, such as GROα and IL-8.

As usually defined, the IC50 is the concentration at which inhibition is half-maximal. What is called EC50 is the concentration at which the effect is half-maximal.

For the compound `O=C(Nc1ccc(F)cc1)c1ccc(SCc2cc(OC(F)(F)F)ccc2B(O)O)nc1` [Compound 2, 6-(2-boronic acid-5-trifluoromethoxy-benzylsulfanyl)-N-(4-fluoro-phenyl)-nicotinamide], in assay [1], the half-maximal inhibitory concentration (IC50) worked out at 22 nM. Further, the EC50 in assay [2] stood at 1250 nM.
